Assays:
[1] = target: plasma kallikrein (PKa) (Homo sapiens, UniProt P03952); experiment: Inhibitory activity against plasma kallikrein in vitro (fluorescence intensity enzyme assay, Pro-Phe-Arg-AMC substrate); type: biochemical; conditions: read-out: PKa IC50
[2] = target: KLK1 (Homo sapiens, UniProt P06870); experiment: Inhibitory activity against KLK1 in vitro (biochemical assay); conditions: read-out: KLK1 IC50; values given in µM
[3] = target: FXIa (Homo sapiens, UniProt P03951); experiment: Inhibitory activity against FXIa in vitro (biochemical assay); conditions: read-out: FXIa IC50; values given in µM

Sequences of proteins named here, by UniProt entry; tags and fusion partners are left off. Residues count along the entry.
UniProt P03952, 391-638 limits assumed: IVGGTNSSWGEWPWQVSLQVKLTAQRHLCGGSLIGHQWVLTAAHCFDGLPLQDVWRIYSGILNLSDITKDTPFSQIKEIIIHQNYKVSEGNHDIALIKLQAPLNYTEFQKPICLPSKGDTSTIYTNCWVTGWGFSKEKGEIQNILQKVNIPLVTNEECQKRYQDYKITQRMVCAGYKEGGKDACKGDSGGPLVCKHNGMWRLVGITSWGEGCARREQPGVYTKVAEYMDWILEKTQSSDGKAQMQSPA
UniProt P03952, 20-390 partner limits assumed: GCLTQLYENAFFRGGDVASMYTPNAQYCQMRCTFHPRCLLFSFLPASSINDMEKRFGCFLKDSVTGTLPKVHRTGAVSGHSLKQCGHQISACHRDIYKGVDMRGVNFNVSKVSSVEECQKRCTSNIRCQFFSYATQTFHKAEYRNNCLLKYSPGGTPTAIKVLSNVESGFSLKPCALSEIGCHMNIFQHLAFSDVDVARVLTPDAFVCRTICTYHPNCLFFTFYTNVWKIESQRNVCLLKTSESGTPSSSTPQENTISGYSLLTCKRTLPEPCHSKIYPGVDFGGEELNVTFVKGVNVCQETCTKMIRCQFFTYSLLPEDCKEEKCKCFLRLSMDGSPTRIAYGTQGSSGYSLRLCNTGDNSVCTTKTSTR
UniProt P06870, 25-262 limits assumed: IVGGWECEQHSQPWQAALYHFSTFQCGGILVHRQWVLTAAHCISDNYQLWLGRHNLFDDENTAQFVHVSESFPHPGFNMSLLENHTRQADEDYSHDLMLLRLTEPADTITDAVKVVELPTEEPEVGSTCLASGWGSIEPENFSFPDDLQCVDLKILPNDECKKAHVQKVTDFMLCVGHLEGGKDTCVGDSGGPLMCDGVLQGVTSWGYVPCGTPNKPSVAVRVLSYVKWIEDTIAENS
UniProt P03951, 388-625 limits assumed: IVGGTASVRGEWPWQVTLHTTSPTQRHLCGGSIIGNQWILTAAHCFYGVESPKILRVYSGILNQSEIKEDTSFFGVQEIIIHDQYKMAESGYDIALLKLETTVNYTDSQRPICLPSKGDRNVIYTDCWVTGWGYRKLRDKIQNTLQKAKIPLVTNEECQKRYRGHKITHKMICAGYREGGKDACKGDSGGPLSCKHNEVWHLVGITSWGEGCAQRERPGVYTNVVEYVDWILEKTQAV
UniProt P03951, 19-387 partner limits assumed: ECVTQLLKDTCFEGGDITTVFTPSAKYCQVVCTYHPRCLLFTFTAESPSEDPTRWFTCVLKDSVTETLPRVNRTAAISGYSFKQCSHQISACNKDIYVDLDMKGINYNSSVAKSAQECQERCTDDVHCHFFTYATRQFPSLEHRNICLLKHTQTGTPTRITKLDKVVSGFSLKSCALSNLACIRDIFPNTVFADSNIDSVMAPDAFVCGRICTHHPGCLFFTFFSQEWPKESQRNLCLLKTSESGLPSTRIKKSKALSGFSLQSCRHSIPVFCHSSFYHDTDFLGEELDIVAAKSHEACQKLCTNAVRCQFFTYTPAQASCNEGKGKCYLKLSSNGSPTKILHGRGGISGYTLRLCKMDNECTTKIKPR

SMILES	IC50 [1]	IC50 [2]	IC50 [3]
Cn1cnc2c1CCC2NC(=O)c1ncn(Cc2ccc(Cn3ccccc3=O)cc2)n1 (centres unmarked)	10.3 nM	> 10 µM	> 10 µM
Cn1cnc2c1CC[C@H]2NC(=O)c1ncn(Cc2ccc(Cn3ccccc3=O)cc2)n1	12.9 nM	–	–
Nc1cc2c(cn1)C(NC(=O)c1ncn(Cc3ccc(Cn4ccccc4=O)cc3)n1)CO2 (centres unmarked)	> 100 nM	–	–
COc1ccnc(CNC(=O)c2cn(Cc3ccc(Cn4ccccc4=O)cc3)nc2CN2C(=O)C3CCC2C3)c1F (centres unmarked)	2.87 nM	–	–
O=C(NCc1nccc(N2CC(F)(F)C2)c1F)c1cn(Cc2ccc(Cn3ccccc3=O)cc2)nc1C1COC1	182 nM	–	–
Nc1cc2c(cn1)[C@H](NC(=O)c1ncn(Cc3ccc(Cn4ccccc4=O)cc3)n1)CO2	63.7 nM	–	–
O=C(NCc1nccc(C2CC2)c1F)c1cn(Cc2ccc(Cn3ccccc3=O)cc2)nc1C1CC1(F)F (single isomer, unassigned) [261]	0.59 nM	> 10 µM	> 10 µM
COCc1nn(Cc2ccc(CN3CC4CCC3C4)cc2)cc1C(=O)NCc1nccc(OC)c1F (single isomer, unassigned) [149]	481 nM	–	–
COc1ccc(F)c(CNC(=O)c2cn(Cc3ccc(Cn4cc(F)ccc4=O)cc3)nc2C2CC2(F)F)c1F (single isomer, unassigned) [282]	2.36 nM	> 10 µM	> 10 µM
COc1ccc(F)c(CNC(=O)c2cn(Cc3ccc(Cn4cc(F)ccc4=O)cc3)nc2C2CC2(F)F)c1F (single isomer, unassigned) [287]	4.54 nM	–	–
COc1ccnc(CNC(=O)c2cnn(Cc3ccc(CN4C(=O)C5CCC4C5)cc3)c2)c1F (centres unmarked)	> 100 nM	–	–
COCc1nn(Cc2ccc(CN3C4CCC3CC4)cc2)cc1C(=O)NCc1nccc(OC)c1F	> 100 nM	–	–
O=C(NCc1nccc(C2CC2)c1F)c1cn(Cc2ccc(Cn3ccccc3=O)cc2)nc1C1CC1(F)F (single isomer, unassigned) [267]	23 nM	–	–
COCc1nn(Cc2ccc(CN3CC4CCC3C4)cc2)cc1C(=O)NCc1nccc(OC)c1F (single isomer, unassigned) [150]	979 nM	–	–

— EP4737450A1 (Longwood Pharmaceuticals (Hangzhou) Co., Ltd, priority 2023, dated 2025)
